Tested on: Mayaro virus (MAYV)
Assay type: cell-based
Conditions: CC50 in Vero cells / IC50 against MAYV
Method: Vero cells (African green monkey kidney, ATCC CCL-81) were grown at 37°C with 5% CO2, in Dulbecco’s modified Eagle’s medium (DMEM) (Life Technologies, USA) supplemented with 5% fetal bovine serum (Cultilab, BRA), 50 IU/mL of penicillin, and 50 μg/mL of streptomycin (Sigma-Aldrich, USA). Mayaro viruses (ATCC VR-66, lineage TR 4675) were propagated in Vero cells and viral stocks in 10% glycerol were kept at -70°C. Virus titer was determined by plaque assay (described under ‘Antiviral activity assay’).
Antiviral activity was evaluated using a virus yield inhibition assay. Briefly, confluent cell monolayers grown in 24-well plates were infected with MAYV (multiplicity of infection = 0.1) for 1 hour, then rinsed with PBS and treated for 24 hours (at 37°C and 5% CO2) with different concentrations (0–100 μg/ml) of flavonoids or extracts diluted in culture medium. After treatment, culture supernatants were recovered and used for titration of extracellular infectious virus particles. For virus titration, confluent cell monolayers in 24-well plates were infected with serial dilutions of recovered supernatants for 1 hour at 37°C, 5% CO2. […] Finally, cells were fixed with 20% formaldehyde and stained with 0.5% crystal violet in 20% ethanol, and viral plaques were counted. […]

NC(=O)c1ncn([C@@H]2O[C@H](CO)[C@@H](O)[C@H]2O)n1 [Ribavirin, reference compound]
SI (Selectivity Index = CC50/IC50): 8

Reference: publication PMC3973022, “Quercetin and quercetin 3-O-glycosides from Bauhinia longifolia (Bong.) Steud. show anti-Mayaro virus activity” (Parasites & Vectors, 2014)
